Chains of the proteins cited; added tags and fusions are not shown. Lines headed by an entry give the natural chain unless they say otherwise; changes in a name come on top.
UniProt P30874: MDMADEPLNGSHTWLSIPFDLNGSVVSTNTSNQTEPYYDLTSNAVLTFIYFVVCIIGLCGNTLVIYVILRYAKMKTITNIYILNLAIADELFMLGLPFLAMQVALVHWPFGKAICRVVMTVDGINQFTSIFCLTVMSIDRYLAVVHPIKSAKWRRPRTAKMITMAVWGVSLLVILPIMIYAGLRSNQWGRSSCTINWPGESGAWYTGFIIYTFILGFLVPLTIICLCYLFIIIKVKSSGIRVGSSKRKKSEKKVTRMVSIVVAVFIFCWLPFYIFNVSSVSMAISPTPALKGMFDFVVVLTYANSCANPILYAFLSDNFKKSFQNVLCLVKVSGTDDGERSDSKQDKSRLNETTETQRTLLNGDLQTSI
UniProt P35346: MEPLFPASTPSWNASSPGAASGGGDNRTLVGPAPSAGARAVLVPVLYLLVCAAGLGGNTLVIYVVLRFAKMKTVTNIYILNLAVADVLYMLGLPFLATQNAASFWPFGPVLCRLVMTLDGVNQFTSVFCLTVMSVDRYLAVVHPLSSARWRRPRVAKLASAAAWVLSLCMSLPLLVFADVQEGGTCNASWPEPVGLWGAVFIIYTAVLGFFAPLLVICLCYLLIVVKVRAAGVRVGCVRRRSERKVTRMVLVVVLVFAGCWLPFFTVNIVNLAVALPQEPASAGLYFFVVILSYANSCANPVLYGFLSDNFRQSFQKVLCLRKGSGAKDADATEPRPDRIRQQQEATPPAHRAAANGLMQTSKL
UniProt P32745: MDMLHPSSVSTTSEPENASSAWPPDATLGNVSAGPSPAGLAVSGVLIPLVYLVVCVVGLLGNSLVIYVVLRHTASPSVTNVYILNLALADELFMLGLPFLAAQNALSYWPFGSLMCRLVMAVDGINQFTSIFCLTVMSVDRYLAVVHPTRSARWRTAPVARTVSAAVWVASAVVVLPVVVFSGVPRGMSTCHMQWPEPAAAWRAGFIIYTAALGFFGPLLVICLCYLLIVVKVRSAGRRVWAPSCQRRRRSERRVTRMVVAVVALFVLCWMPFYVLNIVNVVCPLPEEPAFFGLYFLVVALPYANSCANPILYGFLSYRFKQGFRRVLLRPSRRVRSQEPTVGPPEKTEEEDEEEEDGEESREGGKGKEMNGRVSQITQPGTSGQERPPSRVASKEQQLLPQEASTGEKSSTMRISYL
UniProt P30872: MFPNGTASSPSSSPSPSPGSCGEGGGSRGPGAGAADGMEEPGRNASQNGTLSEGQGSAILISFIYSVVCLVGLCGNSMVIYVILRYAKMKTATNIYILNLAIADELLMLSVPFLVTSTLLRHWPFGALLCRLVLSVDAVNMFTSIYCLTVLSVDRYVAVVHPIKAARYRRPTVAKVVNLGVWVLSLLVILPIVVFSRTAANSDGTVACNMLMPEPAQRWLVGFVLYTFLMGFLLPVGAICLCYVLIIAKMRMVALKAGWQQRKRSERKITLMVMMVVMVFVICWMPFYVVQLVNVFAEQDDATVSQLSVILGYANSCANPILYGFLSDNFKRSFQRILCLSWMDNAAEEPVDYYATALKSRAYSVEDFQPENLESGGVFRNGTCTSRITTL
UniProt P31391: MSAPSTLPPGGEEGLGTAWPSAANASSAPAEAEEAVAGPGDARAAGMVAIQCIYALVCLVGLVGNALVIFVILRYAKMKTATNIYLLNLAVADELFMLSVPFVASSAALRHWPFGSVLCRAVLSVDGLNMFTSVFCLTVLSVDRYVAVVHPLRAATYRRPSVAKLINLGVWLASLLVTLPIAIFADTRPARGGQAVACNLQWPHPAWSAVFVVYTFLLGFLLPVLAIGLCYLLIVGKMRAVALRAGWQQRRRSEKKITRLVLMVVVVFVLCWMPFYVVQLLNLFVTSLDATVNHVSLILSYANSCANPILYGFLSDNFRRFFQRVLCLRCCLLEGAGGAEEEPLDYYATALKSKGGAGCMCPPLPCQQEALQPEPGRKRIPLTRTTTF

According to patent publication US8952128B2, “Somatostatin-dopamine chimeric analogs” (priority 2012, dated 2015):

How the values were obtained:
hSSTR2 [1] = biological target: T1, hSSTR2 (Homo sapiens (Human), UniProt P30874); assay: Intracellular calcium mobilization assay (FLIPR Calcium 4), hSSTR2; assay type: cell-based;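 further: agonist activity read as intracellular calcium rise in cells expressing human SSTR2, loaded with a calcium-sensitive dye for 60 min at 37 °C, measured by FLIPR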
hDRD2 [2] = biological target: T2, hDRD2 (Homo sapiens (Human), UniProt P14416); assay: cell-based; assay type: cell-based
hSSTR5 = hSSTR5 (Homo sapiens (Human), UniProt P35346); assay: Somatostatin receptor radioligand binding assay, hSSTR5; settings: CHO-K1 membranes, [125I-Tyr]-[DPhe-cyclo(Cys-Tyr-DTrp-Lys-Val-Cys)-Thr-NH2]; read-out: hSSTR5 Ki (nM) ± SEM
hSSTR2 [3] = biological target: T1, hSSTR2; assay: Somatostatin receptor radioligand binding assay, hSSTR2; settings: CHO-K1 membranes, [125I-Tyr]-seglitide; read-out: hSSTR2 Ki (nM) ± SEM
hDRD2 [4] = biological target: T2, hDRD2; assay type: binding; settings: CHO-K1 membranes, [3H]-spiperone; read-out: hDRD2 Ki (nM) ± SEM
hSSTR3 = hSSTR3 (Homo sapiens (Human), UniProt P32745); assay: Somatostatin receptor radioligand binding assay, hSSTR3; settings: CHO-K1 membranes, [125I-Tyr11]-SRIF-14; read-out: hSSTR3 Ki (nM) ± SEM
Method: (§1) The affinities of a test compound for the human somatostatin receptors were determined by radioligand binding assays in CHO-K1 cells stably transfected with each of the human somatostatin receptor subtypes, hSSTR1-5. The cDNA coding sequences of hSSTR1 (GenBank accession No. NM_001049.1), hSSTR2 (GenBank accession No. XM—012697.1), hSSTR3 (GenBank accession No. XM—009963.1), hSSTR4 (GenBank accession No. NM_001052.1), and hSSTR5 (GenBank accession No. XM—012565.1) were subcloned into the mammalian expression vector pcDNA3.1 (Life Technologies). Clonal cell lines stably expressing each of the somatostatin receptors were obtained by transfection into CHO-K1 cells (ATCC) and subsequently selected with culture media containing 0.8 mg/mL of G418 (Life Technologies).
(§2) Membranes for in vitro receptor binding assays were obtained by the following procedures. CHO-K1 cells expressing one of the somatostatin receptors were homogenized in ice-cold buffer with 10 mM Tris-HCl, 5 mM EDTA, 3 mM EGTA, 1 mM phenylmethylsuphonyl fluoride, pH 7.6, using Polytron PT10-35GT (Kinematica) at 18,000 rpm for 30 seconds and centrifuged at 500×g for 10 minutes. The supernatant containing the plasma membranes was centrifuged at 100,000×g for 30 minutes and the pellet was resuspended in buffer containing 20 mM glycine-glycine, 1 mM MgCl2, 250 mM sucrose, pH 7.2, for storage at −80° C. […]

hSSTR1 = hSSTR1 (Homo sapiens (Human), UniProt P30872); assay: Somatostatin receptor radioligand binding assay, hSSTR1; settings: CHO-K1 membranes, [125I-Tyr11]-SRIF-14; read-out: hSSTR1 Ki (nM) ± SEM
hSSTR4 = hSSTR4 (Homo sapiens (Human), UniProt P31391); assay: Somatostatin receptor radioligand binding assay, hSSTR4; settings: CHO-K1 membranes, [125I-Tyr11]-SRIF-14; read-out: hSSTR4 Ki (nM) ± SEM
Method: as §1, §2

[5] = calcium mobilization, read-out: hSSTR2 EC50 (nM) ± SEM
[6] = calcium mobilization, read-out: hDRD2 EC50 (nM) ± SEM

`C[C@@H](O)[C@@H]1NC(=O)[C@H](CCCCN)NC(=O)[C@@H](Cc2c[nH]c3ccccc23)NC(=O)[C@H](Cc2ccccc2)NC(=O)[C@H](Cc2ccccc2)NC(=O)[C@H](CCCNC(=N)N)NC(=O)[C@H](NC(=O)CSC[C@@H]2C[C@@H]3c4cccc5[nH]cc(c45)C[C@H]3N(C)C2)CCNC(=O)[C@H](Cc2ccccc2)NC1=O` [Reference Compound A, Dop1-cyclo(DDab-Arg-Phe-Phe-DTrp-Lys-Thr-Phe), reference compound] gave an EC50 (hSSTR2 [1]) of 26.5 ± 2.3 nM and an EC50 (hDRD2 [2]) of 401 ± 141 nM.

For `C[C@@H](O)[C@@H]1NC(=O)[C@H](CCCCN)NC(=O)[C@@H](Cc2c[nH]c3ccccc23)NC(=O)[C@H](Cc2ccccc2)NC(=O)[C@H](Cc2ccccc2)NC(=O)[C@H](CCCNC(=N)N)NC(=O)[C@H](NC(=O)[C@H](Cc2ccc(O)cc2)NC(=O)CSC[C@@H]2C[C@@H]3c4cccc5[nH]cc(c45)C[C@H]3N(C)C2)CCNC(=O)[C@H](Cc2ccccc2)NC1=O` [Reference Compound B, Dop1-Tyr-cyclo(DDab-Arg-Phe-Phe-DTrp-Lys-Thr-Phe), reference compound], the EC50 (hSSTR2 [1]) was 18.8 ± 4.8 nM and the EC50 (hDRD2 [2]) was 62.8 ± 9.8 nM.

Molecule `C[C@@H](O)[C@@H]1NC(=O)[C@H](CCCCN)NC(=O)[C@@H](Cc2c[nH]c3ccccc23)NC(=O)[C@H](Cc2ccccc2)NC(=O)[C@H](Cc2ccccc2)NC(=O)[C@H](CCCNC(=N)N)NC(=O)[C@H](NC(=O)[C@@H](Cc2ccc(O)cc2)NC(=O)CSC[C@@H]2C[C@@H]3c4cccc5[nH]cc(c45)C[C@H]3N(C)C2)CCCCNC(=O)[C@H](Cc2ccccc2)NC1=O` [Compound 37, Dop1-DTyr-cyclo(DLys-Arg-Phe-Phe-DTrp-Lys-Thr-Phe)] has a Ki (hSSTR5) of 2.45 nM, a Ki (hSSTR2 [3]) of 1.38 ± 0.36 nM and an EC50 (hSSTR2 [1]; [5]) of 23.1 ± 4.3 nM. For the same molecule, the Ki (hDRD2 [4]) was 25.3 ± 2.4 nM and the EC50 (hDRD2 [2]; [6]) was 33.4 ± 14.4 nM.

`C[C@@H](O)[C@@H]1NC(=O)[C@H](CCCCN)NC(=O)[C@@H](Cc2c[nH]c3ccccc23)NC(=O)[C@H](Cc2ccncc2)NC(=O)[C@H](Cc2ccccc2)NC(=O)[C@H](CCCNC(=N)N)NC(=O)[C@H](NCCSC[C@@H]2C[C@@H]3c4cccc5[nH]cc(c45)C[C@H]3N(C)C2)CCCCNC(=O)[C@H](Cc2ccc(O)cc2)NC1=O` [Compound 7, Dop1-psi(CH2NH)-cyclo(DLys-Arg-Phe-4Pal-DTrp-Lys-Thr-Tyr)] showed a Ki (hSSTR5) of 0.51 ± 0.1 nM, a Ki (hSSTR3) of 13.1 ± 2.8 nM and a Ki (hSSTR1) of 100 ± 18.5 nM. The Ki (hSSTR2 [3]) was 0.08 ± 0.02 nM, the EC50 (hSSTR2 [1]; [5]) was 2.2 ± 0.5 nM and the Ki (hDRD2 [4]) was 34.3 ± 16.8 nM. It also gave an EC50 (hDRD2 [2]; [6]) of 5 ± 0.7 nM and a Ki (hSSTR4) of 10.8 ± 2.8 nM.

Work on `C[C@@H](O)[C@@H]1NC(=O)[C@H](CCCCN)NC(=O)[C@@H](Cc2c[nH]c3ccccc23)NC(=O)[C@H](Cc2ccccc2)NC(=O)[C@H](Cc2ccccc2)NC(=O)[C@H](CCCNC(=N)N)NC(=O)[C@H](NCCC[C@@H]2C[C@@H]3c4cccc5[nH]cc(c45)C[C@H]3N(C)C2)CCCCNC(=O)[C@H](Cc2ccc(F)cc2)NC1=O` [Compound 1, (D-6-methyl-8β-ergolinyl)-propionyl-psi(CH2NH)-cyclo(DLys-Arg-Phe-Phe-DTrp-Lys-Thr-4FPhe)] yielded a Ki (hSSTR2 [3]) of 0.04 ± 0.02 nM, an EC50 (hSSTR2 [1]; [5]) of 3.1 nM and a Ki (hDRD2 [4]) of 10.8 ± 1.4 nM. It also gave an EC50 (hDRD2 [2]; [6]) of 22.5 ± 0.5 nM.

In the case of `C[C@@H](O)[C@@H]1NC(=O)[C@H](CCCCN)NC(=O)[C@@H](Cc2c[nH]c3ccccc23)NC(=O)[C@H](Cc2ccccc2)NC(=O)[C@H](Cc2ccccc2)NC(=O)[C@H](CCCNC(=N)N)NC(=O)[C@H](NC[C@H](Cc2ccc(O)cc2)NC(=O)CCN(C[C@@H]2C[C@@H]3c4cccc5[nH]cc(c45)C[C@H]3N(C)C2)S(C)(=O)=O)CCCCNC(=O)[C@H](Cc2ccc(F)cc2)NC1=O` [Compound 42, [N-(D-6-methyl-8β-ergolinylmethyl)-N-(methylsulfonyl)]-aminopropionyl-Tyr-psi(CH2NH)-cyclo(DLys-Arg-Phe-Phe-DTrp-Lys-Thr-4FPhe)], the Ki (hSSTR2 [3]) is reported as 0.69 nM, the EC50 (hSSTR2 [1]; [5]) is reported as 30.7 ± 15 nM and the Ki (hDRD2 [4]) is reported as 285 nM. It also gave an EC50 (hDRD2 [2]; [6]) of 65.2 ± 13.7 nM.

With `C[C@@H](O)[C@@H]1NC(=O)[C@H](CCCCN)NC(=O)[C@@H](Cc2c[nH]c3ccccc23)NC(=O)[C@H](Cc2ccccc2)NC(=O)[C@H](Cc2ccccc2)NC(=O)[C@H](CCCNC(=N)N)NC(=O)[C@H](NCCSC[C@@H]2C[C@@H]3c4cccc5[nH]cc(c45)C[C@H]3N(C)C2)CCCCNC(=O)[C@H](Cc2ccc(F)cc2)NC1=O` [Compound 6, Dop1-psi(CH2NH)-cyclo(DLys-Arg-Phe-Phe-DTrp-Lys-Thr-4FPhe)] the Ki (hSSTR5) was 0.52 ± 0.1 nM, the Ki (hSSTR3) was 2.1 ± 0.9 nM and the Ki (hSSTR1) was 32.2 ± 8.1 nM. It also gave a Ki (hSSTR2 [3]) of 0.3 ± 0.06 nM, an EC50 (hSSTR2 [1]; [5]) of 12.7 ± 3.6 nM and a Ki (hDRD2 [4]) of 101 ± 17.9 nM. The EC50 (hDRD2 [2]; [6]) was 33.6 ± 3.7 nM and the Ki (hSSTR4) was 61.9 ± 25 nM.

Like-named read-outs stand apart in the source and are kept apart here.
